Data reported in ChEMBL document CHEMBL1201862, “PubChem BioAssay data set” (2004).
This is one part of the list. Only a part of the results of these assays is listed, not drawn at random. Calls of active or inactive are those of the source. The calls are words filed in the database; no cut-off is given here.

Assay: qHTS Assay for the Inhibitors of L3MBTL1: Hit Validation in AlphaScreen Counterscreen.
Type: functional

Compound: CCc1nc2c([nH]1)c1no[n+]([O-])c1c1no[n+]([O-])c21
- Potency: inactive
